Apparent affinities of Ab-14 variants for a coronavirus HR2 peptide

Target peptide (SARS-CoV-2 spike, HR2 region): PDVDLGDISGINAS

The variants keep the heavy chain, the linker and the frameworks of Ab-14 (scFv order VH, a (GGGGS)3 linker, VL).
VH: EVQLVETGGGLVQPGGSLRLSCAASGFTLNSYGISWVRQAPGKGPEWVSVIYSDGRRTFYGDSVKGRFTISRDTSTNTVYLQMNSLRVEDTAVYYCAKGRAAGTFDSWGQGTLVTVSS
VL: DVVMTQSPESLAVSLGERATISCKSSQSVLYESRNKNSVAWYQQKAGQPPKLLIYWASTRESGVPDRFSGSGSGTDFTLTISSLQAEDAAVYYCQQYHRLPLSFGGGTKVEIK

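The starting antibody came from a phage panning campaign against this peptide. The variants were designed computationally from a first round of random CDR variants and then made and measured. Their group label is 14L_GP_Gen (GP: Gaussian process model; Gen: genetic algorithm; a sequence that several methods proposed may carry one label only). AlphaSeq pools MATa yeast showing the antibodies with MATalpha yeast showing the peptide. The frequency of each diploid, read from paired DNA barcodes, reflects how well the two displayed proteins bind. Scores were corrected for input abundance and mapped to Kd with protein pairs of known affinity run in the same pool. The assay was run in six technical replicates.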

Sequences are complete VL domains.
Values are log10 of the apparent Kd in nM; lower means stronger binding.
A mean of the replicates is given; it leaves out those without a signal.
The authors averaged sequences with at least three values out of six and counted those with two or fewer as poor binders.
Three control strains display no target. For all light chain designs, 4% of the pairings with them gave a signal, with a median of 2.64 and one signal in twenty below 1.59, so weak values seen in few replicates may be background. For each scFv, signals with the empty controls are counted beside the result, with their mean in brackets.
The parent sequence was in this pool as ten entries: three were never detected, three once, and four in most replicates, with averages from 0.34 to 2.37.
The range of this assay differs from that of the first round, and the authors advise against merging the two.

VL	replicates, log10 nM	log10 Kd (nM), mean	signal with controls
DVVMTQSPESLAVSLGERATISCKSSQSWLYESRNKNSVAWYQQKAGQPPKLLIYEASQRESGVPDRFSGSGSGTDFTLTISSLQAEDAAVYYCQQYHRLPLSFGGGTKVEIK	-0.26 -0.40 -0.28 -0.48 -0.57 -0.27	-0.38	2 of 18 (1.92)
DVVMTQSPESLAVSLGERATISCKMPQSELYESRNKNSVAWYQQKAGQPPKLLIYEASTRESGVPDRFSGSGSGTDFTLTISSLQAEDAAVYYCQQYHRLPLSFGGGTKVEIK	0.16 -0.58 -0.65 -0.27 -0.24 -0.44	-0.34	0 of 18
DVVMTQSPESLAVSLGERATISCKLSQSVLYESRNKNNVAWYQQKAGQPPKLLIYEASQRESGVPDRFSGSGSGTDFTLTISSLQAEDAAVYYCQQYHRLPLSFGGGTKVEIK	-0.53 -0.49 -0.51 -0.60 -0.18 -0.65	-0.49	0 of 18
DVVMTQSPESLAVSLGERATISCKLMQSWLYESRNKNSVAWYQQKAGQPPKLLIYGASTRESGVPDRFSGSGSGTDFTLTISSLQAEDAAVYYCQQYHRLPLSFGGGTKVEIK	1.41 0.82 2.82 1.41 1.97 1.08	1.59	2 of 18 (1.87)
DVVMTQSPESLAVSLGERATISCKLSQSNLYESRNKNSVAWYQQKAGQPPKLLIYEASTRLSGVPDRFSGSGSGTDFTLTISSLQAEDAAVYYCQQYHRLPLSFGGGTKVEIK	0.02 0.16 0.06 -0.14 -0.03 -0.09	0.00	2 of 18 (3.15)
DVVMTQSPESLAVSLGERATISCKVEQSFLYESRNKNSVAWYQQKAGQPPKLLIYNASQRESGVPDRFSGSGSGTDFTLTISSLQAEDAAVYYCQQYHRLPLSFGGGTKVEIK	-0.47 -0.28 -0.64 -0.42 -0.71 -0.68	-0.54	0 of 18
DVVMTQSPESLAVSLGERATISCKLSQSVLYESRNKNSVAWYQQKAGQPPKLLIYNASTRMSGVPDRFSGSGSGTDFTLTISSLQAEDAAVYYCQDYHRLPLSFGGGTKVEIK	-0.49 -0.27 -0.52 -0.57 -0.41 -0.11	-0.40	0 of 18
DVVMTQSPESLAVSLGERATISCKLSQSFLYESRNKNSVAWYQQKAGQPPKLLIYNASQREEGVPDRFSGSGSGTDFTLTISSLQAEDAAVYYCQQYHRLPLSFGGGTKVEIK	-0.46 -1.02 -0.57 -0.64 -0.96 -0.60	-0.71	0 of 18
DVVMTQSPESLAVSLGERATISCKLPQSMLYESRNKNSVAWYQQKAGQPPKLLIYNASTREVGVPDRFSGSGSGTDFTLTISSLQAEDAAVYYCQQYHRLPLSFGGGTKVEIK	0.11 -0.07 0.05 -0.23 0.02 0.26	0.02	0 of 18
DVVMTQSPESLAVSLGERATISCKLYQSDLYESRNKNSVAWYQQKAGQPPKLLIYQASTRESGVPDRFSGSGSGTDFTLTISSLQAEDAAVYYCQQYHRLPLSFGGGTKVEIK	0.05 0.16 0.02 0.03 0.12 0.05	0.07	0 of 18
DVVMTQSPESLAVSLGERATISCKLSQSMGYESRNKNSVAWYQQKAGQPPKLLIYNASTRMSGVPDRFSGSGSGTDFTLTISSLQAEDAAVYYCQQYHRLPLSFGGGTKVEIK	-0.01 -0.05 -0.07 -0.20 -0.16 0.21	-0.05	2 of 18 (2.80)
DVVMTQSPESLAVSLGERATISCKLSQSVEYESRNKNSVAWYQQKAGQPPKLLIYNASTREVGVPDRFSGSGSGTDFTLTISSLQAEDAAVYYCQQYHRLPLSFGGGTKVEIK	0.34 0.21 0.15 0.08 0.22 0.20	0.20	3 of 18 (2.82)
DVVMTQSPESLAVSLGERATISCKLPQSQLYESRNKNSVAWYQQKAGQPPKLLIYNASQRLSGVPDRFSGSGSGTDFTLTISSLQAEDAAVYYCQQYHRLPLSFGGGTKVEIK	0.18 -0.32 -0.01 -0.36 -0.12 0.10	-0.09	0 of 18
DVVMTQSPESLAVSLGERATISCKLSQSVLYESRQKNSVAWYQQKAGQPPKLLIYNASQRMSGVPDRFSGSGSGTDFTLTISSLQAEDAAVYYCQQYHRLPLSFGGGTKVEIK	0.15 -0.04 0.19 -0.03 -0.07 0.14	0.06	0 of 18
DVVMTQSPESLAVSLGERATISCKFEQSQLYESRNKNSVAWYQQKAGQPPKLLIYNASQRESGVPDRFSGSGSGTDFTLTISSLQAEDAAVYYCQQYHRLPLSFGGGTKVEIK	0.24 -0.21 -0.51 -0.24 -0.24 -0.12	-0.18	0 of 18
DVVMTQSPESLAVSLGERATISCKVSQSVLYEQRNKNSVAWYQQKAGQPPKLLIYSASTRESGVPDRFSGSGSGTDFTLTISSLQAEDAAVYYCQQYHRLPLSFGGGTKVEIK	0.44 0.29 0.23 0.24 0.22 0.49	0.32	1 of 18 (2.19)
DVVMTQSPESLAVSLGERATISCKLSWSELYESRNKNSVAWYQQKAGQPPKLLIYEASTRESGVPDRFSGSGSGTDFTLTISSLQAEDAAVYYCQQYHRLPLSFGGGTKVEIK	0.09 -0.19 -0.22 -0.26 -0.27 -0.21	-0.18	0 of 18
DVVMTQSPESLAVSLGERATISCKLSQSWLYESRNKNAVAWYQQKAGQPPKLLIYNASTRMSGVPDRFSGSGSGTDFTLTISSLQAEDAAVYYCQQYHRLPLSFGGGTKVEIK	-0.35 0.16 -0.04 0.00 0.10 0.21	0.01	0 of 18

Source: Li et al. 2023 (doi:10.1038/s41467-023-39022-2), MIT Lincoln Laboratory and A-Alpha Bio; data file from the FLAb repository.